This assay has as its target Metabotropic glutamate receptor 1 (Rattus norvegicus, UniProt P23385). The experiment in a line: Inhibition of binding to rat mGluR1a (metabotropic glutamate receptor) expressed in HEK-293 cells. The class given is cell-based, HEK293.

Chains of the proteins cited; added tags and fusions are not shown. Lines headed by an entry give the natural chain unless they say otherwise; changes in a name come on top.
UniProt P23385: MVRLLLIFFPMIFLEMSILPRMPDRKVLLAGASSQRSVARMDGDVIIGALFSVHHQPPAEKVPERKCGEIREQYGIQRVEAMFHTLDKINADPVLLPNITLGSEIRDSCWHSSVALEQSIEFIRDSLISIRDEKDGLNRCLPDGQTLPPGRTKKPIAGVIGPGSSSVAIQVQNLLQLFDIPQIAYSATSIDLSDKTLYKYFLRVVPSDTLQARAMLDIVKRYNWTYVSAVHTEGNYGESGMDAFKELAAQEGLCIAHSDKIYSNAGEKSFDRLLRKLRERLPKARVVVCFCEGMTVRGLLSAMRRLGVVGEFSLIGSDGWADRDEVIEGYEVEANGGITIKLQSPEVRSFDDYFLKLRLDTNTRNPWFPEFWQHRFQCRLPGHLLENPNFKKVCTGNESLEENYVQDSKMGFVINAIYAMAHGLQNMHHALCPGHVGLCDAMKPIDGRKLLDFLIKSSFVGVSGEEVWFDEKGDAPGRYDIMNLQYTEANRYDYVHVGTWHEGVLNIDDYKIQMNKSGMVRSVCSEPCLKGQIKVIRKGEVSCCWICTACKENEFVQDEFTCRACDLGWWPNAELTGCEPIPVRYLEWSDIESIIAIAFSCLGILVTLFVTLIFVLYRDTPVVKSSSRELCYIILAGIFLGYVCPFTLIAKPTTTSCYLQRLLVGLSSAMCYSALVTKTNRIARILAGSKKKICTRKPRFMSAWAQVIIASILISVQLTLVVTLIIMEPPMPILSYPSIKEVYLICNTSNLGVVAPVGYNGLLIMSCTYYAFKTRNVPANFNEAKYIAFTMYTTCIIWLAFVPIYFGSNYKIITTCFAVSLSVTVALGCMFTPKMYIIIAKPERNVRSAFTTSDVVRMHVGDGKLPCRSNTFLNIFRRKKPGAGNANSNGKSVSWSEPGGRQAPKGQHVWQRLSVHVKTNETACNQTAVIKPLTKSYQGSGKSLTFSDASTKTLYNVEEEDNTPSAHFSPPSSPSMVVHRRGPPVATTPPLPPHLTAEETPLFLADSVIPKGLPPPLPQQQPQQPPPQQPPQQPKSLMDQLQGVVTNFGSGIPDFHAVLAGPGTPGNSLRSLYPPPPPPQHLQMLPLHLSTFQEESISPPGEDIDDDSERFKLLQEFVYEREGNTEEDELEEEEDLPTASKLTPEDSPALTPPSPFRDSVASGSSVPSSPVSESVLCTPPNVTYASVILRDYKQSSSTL

Molecules are shown by their SMILES.

`N[C@@H](Cn1oc(=O)[nH]c1=O)C(=O)O` [QUISQUALATE] returned a Ki of 10 nM.

These data come from ChEMBL document CHEMBL1135510, “Common and selective molecular determinants involved in metabotopic glutamate receptor agonist activity” (J Med Chem, 2002).
